Series [1] deals with T1, CypD (Homo sapiens, UniProt P30405). The experiment in a line: Chymotrypsin coupled prolyl-isomerase assay. The format is biochemical. The settings on record: read-out: Wild-Type Cyclophilin Prolyl Isomerase Inhibition IC50 Values, CypD; wild-type CypD.
For series [2], the system named is HeLa cells. The series is described as follows: Fluorescence microscopy of Cy5-conjugated compounds.
Series [3] deals with CES1 (Homo sapiens, UniProt P23141). The experiment in a line: In vitro esterase activity on ester pro-drugs. Further details: Di-ester: unit not given here. The following applies: CES1 (9b); three replicate columns.
The target in series [4] is CES2 (Homo sapiens, UniProt O00748). The series is described as follows: In vitro esterase activity on ester pro-drugs. Also on record: Di-ester: unit not given here. The following applies: CES2 (9c); three replicate columns.
Series [5] in a line: In vitro ester pro-drug stability, buffer only. Further details: unit: %. The settings on record: Tris-HCl (9a), three replicate columns; for Di-acid: share of di-acid species; for Di-ester: share of di-ester species; for Mono-ester: share of mono-ester species.
In series [6] the test system is MEFs. The experiment in a line: Cellular esterase activity on ester pro-drugs. The following applies: SV40 MEF intracellular (9g); three replicate columns. Further details: Di-ester: unit not given here.
Series [7] concerns HeLa cells. The series is described as follows: Cellular esterase activity on ester pro-drugs. Further details: Di-ester: unit not given here. The following applies: Hela intracellular (9e); three replicate columns.
Series [8] relates to A549 cells. The series is described as follows: Cellular esterase activity on ester pro-drugs. Also on record: Di-ester: unit not given here. The following applies: for Di-acid / Di-ester / Mono-ester: A549 intracellular (9d), three replicate columns.
Series [9] relates to HEK293T cells. The experiment in a line: Cellular esterase activity on ester pro-drugs. Further details: Di-ester: unit not given here. The following applies: HEK293T intracellular (9f); three replicate columns.
The test system of series [10] is HepG2 cells. The series is described as follows: Cellular esterase activity on ester pro-drugs. Also on record: Di-ester: unit: %. The following applies: HepG2 intracellular (9h); three replicate columns.
The target in series [11] is T2, Cyp40 (Homo sapiens, UniProt Q08752). The series is described as follows: Chymotrypsin coupled prolyl-isomerase assay. The format is biochemical. The settings on record: read-out: Wild-Type Cyclophilin Prolyl Isomerase Inhibition IC50 Values, Cyp40; wild-type Cyp40.
In series [12] the target is CypH (Homo sapiens, UniProt O43447). The series is described as follows: Chymotrypsin coupled prolyl-isomerase assay. In kind it is biochemical.
In series [13] the target is CypC (Homo sapiens, UniProt P45877). The experiment in a line: Chymotrypsin coupled prolyl-isomerase assay. The format is biochemical. The following applies: read-out: Wild-Type Cyclophilin Prolyl Isomerase Inhibition IC50 Values, CypC; wild-type CypC.
Series [14] has as its target T3, CypA (Homo sapiens, UniProt P62937). The series is described as follows: Chymotrypsin coupled prolyl-isomerase assay. The format is biochemical. The settings on record: read-out: Wild-Type Cyclophilin Prolyl Isomerase Inhibition IC50 Values, CypA; wild-type CypA.
Series [15] addresses PPWD1 (Homo sapiens, UniProt Q96BP3). The series is described as follows: Chymotrypsin coupled prolyl-isomerase assay. In kind it is biochemical. The settings on record: read-out: Wild-Type Cyclophilin Prolyl Isomerase Inhibition IC50 Values, PPWD1; wild-type PPWD1.
Series [16] concerns the target T4, CypE (Homo sapiens, UniProt Q9UNP9). The experiment in a line: Chymotrypsin coupled prolyl-isomerase assay. The format is biochemical. The following applies: read-out: IC50 CypE; prolyl-isomerase inhibition, 5 nM cyclophilin.
Series [17] concerns the target NKTR (Homo sapiens, UniProt P30414). The series is described as follows: Chymotrypsin coupled prolyl-isomerase assay. The format is biochemical.
Series [18] addresses T5, PPIL1 (Homo sapiens, UniProt Q9Y3C6). The series is described as follows: Chymotrypsin coupled prolyl-isomerase assay. The following applies: read-out: Wild-Type Cyclophilin Prolyl Isomerase Inhibition IC50 Values, PPIL1; wild-type PPIL1. The format is biochemical.
In series [19] the target is T6, CypB (Homo sapiens, UniProt P23284). The following applies: read-out: Wild-Type Cyclophilin Prolyl Isomerase Inhibition IC50 Values, CypB; wild-type CypB.
Series [20] deals with PPIL3 (Homo sapiens, UniProt Q9H2H8). The experiment in a line: Competition anisotropy binding assay with A26-Fl. The following applies: read-out: Ki PPIL3; FP competition with 0.5 nM A26-Fl, 24 h.
Series [21] addresses T2, Cyp40. The experiment in a line: Competition anisotropy binding assay with A26-Fl.
Series [22] concerns the target T1, CypD. The series is described as follows: Competition anisotropy binding assay with A26-Fl. The following applies: read-out: Ki CypD; FP competition with 0.5 nM A26-Fl, 24 h.
Series [23] addresses T3, CypA. The experiment in a line: Competition anisotropy binding assay with A26-Fl. The settings on record: read-out: Ki CypA; FP competition with 0.5 nM A26-Fl, 24 h.
Series [24] has as its target T6, CypB. The experiment in a line: Competition anisotropy binding assay with A26-Fl. The following applies: read-out: Ki CypB; FP competition with 0.5 nM A26-Fl, 24 h.
In series [25] the target is T4, CypE. The series is described as follows: Competition anisotropy binding assay with A26-Fl. The following applies: read-out: Ki CypE; FP competition with 0.5 nM A26-Fl, 24 h.
In series [26] the target is T5, PPIL1. The series is described as follows: Competition anisotropy binding assay with A26-Fl. The settings on record: read-out: Ki PPIL1; FP competition with 0.5 nM A26-Fl, 24 h.

Protein sequences, listed by entry. Tags and fused reporters are not part of them. Residues count along the entry.
UniProt P30405, 45-207 limits assumed: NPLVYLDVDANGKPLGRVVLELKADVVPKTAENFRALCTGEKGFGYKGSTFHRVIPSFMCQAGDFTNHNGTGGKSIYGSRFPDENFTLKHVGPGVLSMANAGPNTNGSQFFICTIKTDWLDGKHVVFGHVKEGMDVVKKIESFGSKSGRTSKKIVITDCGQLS
UniProt P23141, 18-567 limits assumed: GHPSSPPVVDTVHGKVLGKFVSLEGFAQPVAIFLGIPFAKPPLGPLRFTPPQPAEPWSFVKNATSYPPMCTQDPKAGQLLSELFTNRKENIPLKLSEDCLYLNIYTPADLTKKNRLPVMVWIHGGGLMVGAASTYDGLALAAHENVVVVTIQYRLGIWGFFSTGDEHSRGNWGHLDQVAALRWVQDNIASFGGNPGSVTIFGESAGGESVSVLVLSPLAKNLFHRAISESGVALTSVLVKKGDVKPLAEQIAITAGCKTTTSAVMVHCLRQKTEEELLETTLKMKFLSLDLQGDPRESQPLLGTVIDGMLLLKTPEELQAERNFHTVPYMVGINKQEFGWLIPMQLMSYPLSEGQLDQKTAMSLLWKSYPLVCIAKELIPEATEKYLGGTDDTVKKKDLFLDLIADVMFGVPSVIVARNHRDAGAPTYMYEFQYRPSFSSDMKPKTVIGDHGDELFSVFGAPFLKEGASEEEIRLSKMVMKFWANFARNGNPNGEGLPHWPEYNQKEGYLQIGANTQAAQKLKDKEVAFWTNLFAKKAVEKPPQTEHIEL
UniProt O00748, 27-559 limits assumed: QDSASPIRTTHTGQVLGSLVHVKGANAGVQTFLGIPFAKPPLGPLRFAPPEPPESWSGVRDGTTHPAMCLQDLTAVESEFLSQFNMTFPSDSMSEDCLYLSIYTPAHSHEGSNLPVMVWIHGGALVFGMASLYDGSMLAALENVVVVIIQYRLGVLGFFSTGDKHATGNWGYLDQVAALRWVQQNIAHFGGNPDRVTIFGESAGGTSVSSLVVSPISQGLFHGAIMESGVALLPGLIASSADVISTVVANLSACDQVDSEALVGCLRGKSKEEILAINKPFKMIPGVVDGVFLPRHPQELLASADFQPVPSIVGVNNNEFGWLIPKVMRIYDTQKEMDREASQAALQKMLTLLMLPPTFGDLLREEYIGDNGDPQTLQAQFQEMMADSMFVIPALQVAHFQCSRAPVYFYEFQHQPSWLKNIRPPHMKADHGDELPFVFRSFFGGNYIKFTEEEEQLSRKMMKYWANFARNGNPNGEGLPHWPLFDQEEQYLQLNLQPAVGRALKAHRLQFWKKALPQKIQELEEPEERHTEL
UniProt Q08752, 1-183 limits assumed: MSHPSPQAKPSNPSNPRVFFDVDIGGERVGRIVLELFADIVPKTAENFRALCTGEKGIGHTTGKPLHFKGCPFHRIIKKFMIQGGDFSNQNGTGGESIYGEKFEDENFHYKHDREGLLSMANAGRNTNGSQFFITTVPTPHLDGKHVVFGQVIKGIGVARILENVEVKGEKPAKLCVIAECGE
UniProt O43447, whole entry: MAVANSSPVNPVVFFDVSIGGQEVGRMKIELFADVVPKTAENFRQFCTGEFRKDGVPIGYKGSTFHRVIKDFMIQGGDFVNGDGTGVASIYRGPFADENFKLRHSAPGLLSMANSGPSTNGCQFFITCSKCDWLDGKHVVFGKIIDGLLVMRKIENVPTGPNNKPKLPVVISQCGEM
UniProt P45877, 24-212 limits assumed: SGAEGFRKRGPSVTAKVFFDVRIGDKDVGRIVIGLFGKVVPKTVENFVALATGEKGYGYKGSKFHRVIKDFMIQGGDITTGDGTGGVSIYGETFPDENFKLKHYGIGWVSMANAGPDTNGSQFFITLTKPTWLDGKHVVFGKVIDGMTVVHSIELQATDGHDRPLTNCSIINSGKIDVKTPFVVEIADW
UniProt P62937, whole entry: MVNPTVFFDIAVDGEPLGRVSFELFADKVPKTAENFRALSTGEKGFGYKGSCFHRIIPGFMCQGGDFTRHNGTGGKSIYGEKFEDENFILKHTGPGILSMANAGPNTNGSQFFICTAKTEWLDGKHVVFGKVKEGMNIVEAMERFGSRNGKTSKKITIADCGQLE
UniProt Q96BP3, 473-646 limits assumed: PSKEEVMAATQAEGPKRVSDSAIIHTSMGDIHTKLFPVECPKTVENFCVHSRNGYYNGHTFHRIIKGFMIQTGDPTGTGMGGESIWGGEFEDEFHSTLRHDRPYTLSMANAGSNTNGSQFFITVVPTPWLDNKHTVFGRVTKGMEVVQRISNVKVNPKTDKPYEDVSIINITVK
UniProt Q9UNP9, 131-301 limits assumed: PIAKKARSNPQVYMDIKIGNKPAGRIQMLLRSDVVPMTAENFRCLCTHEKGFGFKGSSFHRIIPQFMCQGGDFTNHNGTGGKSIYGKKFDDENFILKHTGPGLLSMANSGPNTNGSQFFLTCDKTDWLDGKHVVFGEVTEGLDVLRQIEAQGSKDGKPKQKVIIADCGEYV
UniProt P30414, 7-179 limits assumed: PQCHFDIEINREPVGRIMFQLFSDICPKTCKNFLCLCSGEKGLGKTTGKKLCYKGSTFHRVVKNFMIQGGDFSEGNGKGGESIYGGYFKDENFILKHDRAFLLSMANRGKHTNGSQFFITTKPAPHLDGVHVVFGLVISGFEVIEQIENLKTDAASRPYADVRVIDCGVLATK
UniProt Q9Y3C6, whole entry: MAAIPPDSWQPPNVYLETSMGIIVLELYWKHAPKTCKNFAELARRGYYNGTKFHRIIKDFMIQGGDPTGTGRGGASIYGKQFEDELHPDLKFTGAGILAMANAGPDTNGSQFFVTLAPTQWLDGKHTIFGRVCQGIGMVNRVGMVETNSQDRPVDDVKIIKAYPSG
UniProt P23284, 34-216 limits assumed: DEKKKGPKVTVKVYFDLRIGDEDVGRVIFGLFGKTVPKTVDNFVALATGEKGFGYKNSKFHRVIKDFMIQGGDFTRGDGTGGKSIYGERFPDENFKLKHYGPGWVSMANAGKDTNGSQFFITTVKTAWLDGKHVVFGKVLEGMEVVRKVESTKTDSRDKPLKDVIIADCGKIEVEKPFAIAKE
UniProt Q9H2H8, whole entry: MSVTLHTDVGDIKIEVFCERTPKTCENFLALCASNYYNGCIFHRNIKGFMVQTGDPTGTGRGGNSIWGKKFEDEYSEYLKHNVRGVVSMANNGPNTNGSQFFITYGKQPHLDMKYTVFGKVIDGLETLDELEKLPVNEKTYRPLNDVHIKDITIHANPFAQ

Each structure is given as a SMILES string. Several values for one entry are separate records, joined by “and”; a condition that tells them apart may be missing. Identical values can stand only once. Like-named read-outs stand apart in the source and are kept apart here. Where only a bound is given, the exact number is not on record here.

Regarding `CCOC(=O)C(Cc1ccc(-c2ccc(C[C@H]3NC(=O)[C@@]4(Cc5ccccc5)CCCN(C4)C(=O)/C=C/C(=O)NCC[C@H](C(=O)NCCNC(=O)CCCCCN4C(=CC=CC=CC5=[N+](C)c6ccccc6C5(C)C)C(C)(C)c5ccccc54)NC(=O)Cc4ccccc4CNC3=O)cc2)cc1)C(=O)OCC`, the IC50 (in general, the midpoint of a concentration-inhibition curve) in [1] was > 2 µM. Also, the “plasma membrane permeability / mitochondrial localization (in words)” value in series [2] was “good mitochondrial localization”. Also, the Di-acid is 62 and 72 and 76 in [3]; 1 and 2 (2×) in [4]; 0 in series [5]; 46 and 48 and 50 in series [6]; 63 (2×) and 66 in series [7]; 81 and 82 and 75 in [8]. In addition, the Di-acid in series [9] is 19 and 16 and 17; in [10], 18 and 16 and 17. Besides, the Di-ester in series [3] was 12 and 11 and 10; in series [4], 23 and 21 and 20; in series [5], 100; in [6], 32 and 30 and 27; in series [7], 10 and 9 and 11; in [8], 7 and 8 (2×). For the same compound, the Di-ester was 66 and 69 and 68 in series [9]; 58 and 61 and 60 in series [10]. In addition, the Mono-ester in series [3] was 24 and 16 and 12; in [4], 75 and 76 and 77; in [5], 0; in series [6] it was 21 (2×) and 22; in series [7] it was 26 and 24 and 25; in [8] it was 11 and 9 and 16. The Mono-ester in [9] was 14; in [10] it was 23 (2×) and 22. In addition, the “intracellular conversion to di-acid (in words)” value in series [8] (A549, HeLa, HEK293T, HepG2, MEFs) was “readily converted to the corresponding di-acids intracellularly”.

Consider `CC(=O)c1ccc(-c2ccc(C[C@@H]3NC(=O)[C@]4(Cc5ccccc5)CCCN(C4)C(=O)/C=C/C(=O)NCC[C@@H](C(N)=O)NC(=O)Cc4ccccc4CNC3=O)cc2)cc1B(O)O`, for which the IC50 in series [11] is 7 µM; in [12] (read-out: IC50 CypH, prolyl-isomerase inhibition, 5 nM cyclophilin), 50 µM; in series [12] (read-out: Wild-Type Cyclophilin Prolyl Isomerase Inhibition IC50 Values, CypH, wild-type CypH), 50 µM; in [13] it was > 50 µM; in [1], 4 µM; in series [14], 7 µM. The IC50 worked out at 30 µM in series [15]; 0.9 µM in series [16]; 50 µM in series [17] (read-out: IC50 NKTR, prolyl-isomerase inhibition, 5 nM cyclophilin); 50 µM in [17] (read-out: Wild-Type Cyclophilin Prolyl Isomerase Inhibition IC50 Values, NKTR, wild-type NKTR); 3 µM in series [18]; 6 µM in [19]. The Ki (usually a dissociation constant, usually derived from enzyme kinetics or from competition with a known ligand) in series [20] is > 10 µM; in [21] (read-out: Ki Cyp40, FP competition with 0.5 nM A26-Fl, 24 h), 2.7 µM; in series [22], 9 µM; in series [23] it was > 10 µM; in series [24], > 10 µM; in series [25] it was 1 µM. Also, in [26], the Ki turned out to be 3.4 µM.

As to `CCOC(=O)CC(CC(=O)OCC)c1ccc(-c2ccc(C[C@H]3NC(=O)[C@@]4(Cc5ccccc5)CCCN(C4)C(=O)/C=C/C(=O)NCC[C@H](C(=O)NCCNC(=O)CCCCCN4C(=CC=CC=CC5=[N+](C)c6ccccc6C5(C)C)C(C)(C)c5ccccc54)NC(=O)Cc4ccccc4CNC3=O)cc2)cc1`, in series [1], the IC50 is > 2 µM. In addition, in [2], the “plasma membrane permeability / mitochondrial localization (in words)” value is on record as “good mitochondrial localization”. For the same compound, the Di-acid in series [3] was 38 and 46 and 45; in [4], 1; in series [5] it was 0; in series [6] it was 3; in series [7] it was 6 and 8 and 5; in series [8] it was 3 (2×) and 4. Also, the Di-acid in series [9] was 1; in [10] it was 3. Moreover, the Di-ester in series [3] is 11 and 8 (2×); in series [4] it was 27 and 29 (2×); in series [5] it was 100; in series [6], 43 and 41 and 46; in series [7] it was 30 and 29 and 44; in [8], 19 and 20 (2×). Further, the Di-ester in series [9] is 53 and 51 and 54; in series [10], 63 (2×) and 62. Further, the Mono-ester is 52 and 46 and 48 in [3]; 72 and 71 (2×) in [4]; 0 in series [5]; 54 and 56 and 52 in series [6]; 64 and 63 and 51 in series [7]; 77 (2×) and 76 in series [8]. The Mono-ester in series [9] was 46 and 48 and 45; in series [10], 34 (2×) and 35.

For `NC(=O)[C@@H]1CCNC(=O)/C=C/C(=O)N2CCC[C@](Cc3ccccc3)(C2)C(=O)N[C@@H](Cc2ccc(-c3ccc(B(O)O)c(C=O)c3)cc2)C(=O)NCc2ccccc2CC(=O)N1`, the inhibition constant (Ki) in series [20] was > 10 µM; in [21], > 10 µM; in series [22], 0.8 µM; in series [23] it was 2.6 µM; in series [24], 2.9 µM; in series [25], 0.5 µM. In series [26], the Ki was > 10 µM.
